Source: paper PMC4007584 (Journal of biomolecular screening, 2013)
Where a name gives a salt, the structure may show the parent alone.

By UniProt entry, the sequences of proteins in these tests, tags left out. Residues count along the entry.
UniProt Q9Y233, 715-1055 limits assumed: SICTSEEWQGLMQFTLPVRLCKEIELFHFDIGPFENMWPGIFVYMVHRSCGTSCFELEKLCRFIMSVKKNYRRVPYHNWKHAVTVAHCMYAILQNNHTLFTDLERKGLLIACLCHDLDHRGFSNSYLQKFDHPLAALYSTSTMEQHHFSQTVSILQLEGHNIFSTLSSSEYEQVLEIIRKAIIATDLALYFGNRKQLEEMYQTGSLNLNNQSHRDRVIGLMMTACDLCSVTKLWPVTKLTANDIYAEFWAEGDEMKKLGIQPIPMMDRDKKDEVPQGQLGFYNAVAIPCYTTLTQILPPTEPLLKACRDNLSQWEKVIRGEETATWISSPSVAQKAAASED

Target: catalytic domain of PDE10A2 (Homo sapiens, UniProt Q9Y233)
Assay: PDE10A calorimetric activity assay
Assay type: biochemical

`COc1ccc(Cc2nccc3cc(OC)c(OC)cc23)cc1OC` [Papaverine, papaverine hydrochloride] gave a Ki of 1000 ± 140 nM.
